Earlier results on one molecule are cited in patent US20240351966A1, “CLASS OF ALKYLPHENOL COMPOUNDS AND PREPARATION METHOD THEREFOR” (Shanghai Institute of Materia Medica, Chinese Academy of …, priority 2021, published 2024).

Sequences of proteins named here, by UniProt entry; tags and fusion partners are left off.
UniProt O94768, whole entry: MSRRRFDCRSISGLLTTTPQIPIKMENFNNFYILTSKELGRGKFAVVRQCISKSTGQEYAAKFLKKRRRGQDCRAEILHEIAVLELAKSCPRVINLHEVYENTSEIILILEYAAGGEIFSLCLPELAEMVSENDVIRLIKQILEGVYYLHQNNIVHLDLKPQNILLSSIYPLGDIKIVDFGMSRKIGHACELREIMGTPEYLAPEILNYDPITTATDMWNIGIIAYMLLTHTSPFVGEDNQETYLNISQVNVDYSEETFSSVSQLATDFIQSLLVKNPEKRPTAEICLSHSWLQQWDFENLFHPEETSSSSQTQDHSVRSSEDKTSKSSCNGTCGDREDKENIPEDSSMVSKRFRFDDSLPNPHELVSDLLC

SMILES strings stand for the structures. pIC50: −log10 of the molar value.

This data set deals with DRAK2 (Homo sapiens (Human), UniProt O94768). The conditions noted are these: read-out: IC50 on DRAK2; literature value; cited from earlier work.

What is called pIC50 is the IC50 on a negative log10 scale, so that one unit is a factor of ten. As to `CCCCC(=O)Nc1ccc2c(c1)/C(=C1/Nc3ccccc3/C1=N\O)C(=O)N2`, the pIC50 was 8.52.
